Chains of the proteins cited; added tags and fusions are not shown. Residues count along the entry.
UniProt Q04771, 21-509 limits assumed: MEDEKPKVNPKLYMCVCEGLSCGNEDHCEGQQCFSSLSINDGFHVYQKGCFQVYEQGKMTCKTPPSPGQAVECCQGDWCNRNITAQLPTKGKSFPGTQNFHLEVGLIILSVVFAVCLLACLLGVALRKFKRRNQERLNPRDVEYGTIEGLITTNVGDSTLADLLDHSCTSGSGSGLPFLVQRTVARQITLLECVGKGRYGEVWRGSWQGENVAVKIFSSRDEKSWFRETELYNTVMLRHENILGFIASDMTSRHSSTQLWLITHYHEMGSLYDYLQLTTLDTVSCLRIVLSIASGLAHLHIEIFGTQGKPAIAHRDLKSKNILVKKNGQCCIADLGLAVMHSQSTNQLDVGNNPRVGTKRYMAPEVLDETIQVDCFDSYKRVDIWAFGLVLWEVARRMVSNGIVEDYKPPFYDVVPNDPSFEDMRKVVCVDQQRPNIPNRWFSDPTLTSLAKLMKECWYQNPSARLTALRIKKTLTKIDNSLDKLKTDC
UniProt P36894, 24-532 limits assumed: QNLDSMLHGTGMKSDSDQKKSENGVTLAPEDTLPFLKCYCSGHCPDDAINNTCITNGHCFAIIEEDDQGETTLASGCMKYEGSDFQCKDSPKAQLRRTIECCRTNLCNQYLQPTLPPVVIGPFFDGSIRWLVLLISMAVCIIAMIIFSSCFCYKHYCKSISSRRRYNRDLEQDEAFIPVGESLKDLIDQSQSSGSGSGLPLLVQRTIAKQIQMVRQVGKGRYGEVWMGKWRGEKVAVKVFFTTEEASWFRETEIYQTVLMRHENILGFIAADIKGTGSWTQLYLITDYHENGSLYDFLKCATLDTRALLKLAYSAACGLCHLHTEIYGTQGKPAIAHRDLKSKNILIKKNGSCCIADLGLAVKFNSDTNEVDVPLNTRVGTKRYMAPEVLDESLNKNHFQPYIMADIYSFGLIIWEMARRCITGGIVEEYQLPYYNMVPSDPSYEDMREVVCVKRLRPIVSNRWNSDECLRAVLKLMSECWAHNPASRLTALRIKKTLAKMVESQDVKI
UniProt O00238, 14-502 limits assumed: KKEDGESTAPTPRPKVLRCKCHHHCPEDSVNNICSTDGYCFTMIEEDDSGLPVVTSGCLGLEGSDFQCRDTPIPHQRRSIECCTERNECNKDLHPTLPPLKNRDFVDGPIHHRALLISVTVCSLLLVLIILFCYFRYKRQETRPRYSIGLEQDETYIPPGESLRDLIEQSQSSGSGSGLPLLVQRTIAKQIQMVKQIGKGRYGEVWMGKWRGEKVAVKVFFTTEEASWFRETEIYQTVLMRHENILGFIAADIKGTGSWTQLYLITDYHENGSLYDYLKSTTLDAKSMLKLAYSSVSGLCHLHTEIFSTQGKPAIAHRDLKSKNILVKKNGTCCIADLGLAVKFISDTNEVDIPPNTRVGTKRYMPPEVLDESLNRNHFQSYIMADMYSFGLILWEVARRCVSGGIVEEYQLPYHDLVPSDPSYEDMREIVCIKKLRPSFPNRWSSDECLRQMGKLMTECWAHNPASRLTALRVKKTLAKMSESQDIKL

In patent US10954216B2, “BMP-signal-inhibiting compound” (RIKEN, priority 2016, dated 2021):

Columns and labels:
[1] = system: BMP signal in MDA-231-D-BREFluc/Rluc cells; assay: BMP signal inhibitory effect (AlphaScreen SureFire SMAD1 p-Ser463/465, BMP-6 stimulation); assay type: cell-based; settings: BMP-6 stimulated MDA-231-D-BREFluc/Rluc cells, phospho-SMAD1 AlphaScreen
Protocol: BMP Signal Inhibitory Effect
A BMP signal inhibitory activity of a compound of the present invention was evaluated according to the following method.
MDA-231-D-BREFluc/Rluc cells prepared according to the method described in Y. Katsuno et al., Oncogene, 27, 6322 (2008) were incubated at 37° C. for 2 hours together with test compounds, and BMP-6 (commercially available from R&D System, 507-BM-020) was then added thereto, and the mixture was additionally incubated at 37° C. for 30 minutes. A Lysis Buffer and Acceptor mix of AlphaScreen SureFire SMAD1 (p-Ser463/465) assay kit (commercially available from Perkin Elmer, TGRSM1S10K) were sequentially added thereto, the mixture was incubated at room temperature for 2 hours, and AlphaScreen Protein A kit (commercially available from Perkin Elmer, 6760617) was then added thereto, and standard AlphaScreen settings of Alpha Technology—compatible plate reader (commercially available from Perkin Elmer, EnSpire) was used for measurement.

[2] = biological target: human ALK2 (Homo sapiens (Human), UniProt Q04771); assay: ALK2 enzyme inhibitory effect (33P-ATP kinase assay, Reaction Biology); assay type: biochemical; settings: ALK2, 10 μM ATP, 20 μM casein
[3] = biological target: human ALK3 (Homo sapiens (Human), UniProt P36894); assay: ALK3 enzyme inhibitory effect (33P-ATP kinase assay, Reaction Biology); assay type: biochemical; settings: ALK3, test compound 300 nM
[4] = biological target: human ALK6 (Homo sapiens (Human), UniProt O00238); assay: ALK6 enzyme inhibitory effect (33P-ATP kinase assay, Reaction Biology); assay type: biochemical; settings: ALK6, test compound 300 nM

Question: `CCn1cc(-c2ccnc(Nc3ccc(-n4cncn4)cc3)n2)c(-c2cccnc2)n1` was tested. Which IC50 [1] did it give?
Answer: 16.4 nM

Question: What about the IC50 [2] of the same compound?
Answer: 26.4 nM

Question: What about the “Inhibition rate at 300 nM” value [3] of the same compound?
Answer: 53.3%

Question: And the “Inhibition rate at 300 nM” value [4]?
Answer: 88.9%
